Consider eight molecules from ChEMBL document CHEMBL1138800, “Synthesis and biological evaluation of novel N6-[4-(substituted)sulfonamidophenylcarbamoyl]adenosine-5'-uronamides as A3 adenosine receptor agonists” (J Med Chem, 2004).

The chains behind the UniProt entries cited, without tags or fusion partners.
UniProt P0DMS8, whole entry: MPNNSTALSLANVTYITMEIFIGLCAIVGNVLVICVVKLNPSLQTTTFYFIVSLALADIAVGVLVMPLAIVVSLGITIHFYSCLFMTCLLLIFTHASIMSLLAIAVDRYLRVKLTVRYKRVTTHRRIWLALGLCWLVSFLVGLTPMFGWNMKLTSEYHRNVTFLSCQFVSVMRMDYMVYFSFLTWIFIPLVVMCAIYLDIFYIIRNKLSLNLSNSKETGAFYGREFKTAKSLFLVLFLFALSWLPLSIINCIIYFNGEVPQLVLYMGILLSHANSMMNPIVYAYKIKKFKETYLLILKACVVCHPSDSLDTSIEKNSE
UniProt P30542, whole entry: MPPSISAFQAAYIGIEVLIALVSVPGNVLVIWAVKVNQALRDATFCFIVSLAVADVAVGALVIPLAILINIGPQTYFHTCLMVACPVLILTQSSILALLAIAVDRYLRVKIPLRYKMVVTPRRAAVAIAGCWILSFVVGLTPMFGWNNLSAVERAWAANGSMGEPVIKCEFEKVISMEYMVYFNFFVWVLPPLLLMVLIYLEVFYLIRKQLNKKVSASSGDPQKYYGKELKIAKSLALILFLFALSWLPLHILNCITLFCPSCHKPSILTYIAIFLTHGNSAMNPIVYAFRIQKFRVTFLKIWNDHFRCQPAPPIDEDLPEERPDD

Experiment [1] concerns the target T1, Adenosine receptor A3 (Homo sapiens, UniProt P0DMS8). Nature of the experiment: Displacement of [125I]AB-MECA binding to Adenosine A3 receptor expressed in CHO cells. Format: cell-based.
Experiment [2] has as its target Adenosine receptor A1 (Homo sapiens, UniProt P30542). In words: Displacement of [3H]CHA binding to Adenosine A1 receptor expressed in CHO cells. The experiment is classed as cell-based.
Experiment [3] has as its target T1, Adenosine receptor A3. Nature of the experiment: Inhibition of (10 uM) forskolin-mediated cAMP production in CHO cells expressing human Adenosine A3 receptor. Format: functional, cell-based.

pIC50, pKi: −log10 of the molar value.

Regarding `CCNC(=O)[C@H]1OC(n2cnc3c(NC(=O)Nc4ccc(S(=O)(=O)NC5CCCCC5)cc4)ncnc32)C(O)C1O` (single isomer, unassigned), the pKi in experiment [1] was 7.64.
Regarding `CCNC(=O)[C@H]1OC(n2cnc3c(NC(=O)Nc4ccc(S(=O)(=O)N5CCCCC5)cc4)ncnc32)C(O)C1O` (single isomer, unassigned), the pKi in experiment [2] was 6.12; in experiment [1], 7.77.
In turn, `CCNC(=O)[C@H]1OC(n2cnc3c(NC(=O)Nc4ccc(S(=O)(=O)N(C)C)cc4)ncnc32)C(O)C1O` (single isomer, unassigned) had a pKi in experiment [1] of 7.92.
Turning to `CCNC(=O)[C@H]1OC(n2cnc3c(NC(=O)Nc4ccc(S(=O)(=O)N5CCCC5)cc4)ncnc32)C(O)C1O` (single isomer, unassigned), in experiment [2], the pKi was 6.15.
In experiment [1], `CCNC(=O)[C@H]1OC(n2cnc3c(NC(=O)Nc4ccc(S(=O)(=O)Nc5ccc(OC)cc5)cc4)ncnc32)C(O)C1O` (single isomer, unassigned) had a pKi of 7.64.
For `CCNC(=O)[C@H]1OC(n2cnc3c(NC(=O)Nc4ccc(S(=O)(=O)N(CC)CC)cc4)ncnc32)C(O)C1O` (single isomer, unassigned), in experiment [3], the pIC50 was 7.30. The pKi was 6.46 in experiment [2] and 8.05 in experiment [1].
Molecule `CCNC(=O)[C@H]1OC(n2cnc3c(NC(=O)Nc4ccc(S(=O)(=O)NCc5ccccc5)cc4)ncnc32)C(O)C1O` (single isomer, unassigned) gave a pKi in experiment [1] of 7.62.
For the molecule `C=CCN(C)S(=O)(=O)c1ccc(NC(=O)Nc2ncnc3c2ncn3C2O[C@H](C(=O)NCC)C(O)C2O)cc1` (single isomer, unassigned), the pKi in experiment [2] was 6.69.
